# In PMC5643545, “A novel library of -arylketones as potential inhibitors of α-glucosidase: Their design, synthesis, in vitro and in vivo studies” (Scientific Reports, 2017):
# The chains behind the UniProt entries cited, without tags or fusion partners. Residues count along the entry.
# UniProt Q2KIM0, 23-468 limits assumed: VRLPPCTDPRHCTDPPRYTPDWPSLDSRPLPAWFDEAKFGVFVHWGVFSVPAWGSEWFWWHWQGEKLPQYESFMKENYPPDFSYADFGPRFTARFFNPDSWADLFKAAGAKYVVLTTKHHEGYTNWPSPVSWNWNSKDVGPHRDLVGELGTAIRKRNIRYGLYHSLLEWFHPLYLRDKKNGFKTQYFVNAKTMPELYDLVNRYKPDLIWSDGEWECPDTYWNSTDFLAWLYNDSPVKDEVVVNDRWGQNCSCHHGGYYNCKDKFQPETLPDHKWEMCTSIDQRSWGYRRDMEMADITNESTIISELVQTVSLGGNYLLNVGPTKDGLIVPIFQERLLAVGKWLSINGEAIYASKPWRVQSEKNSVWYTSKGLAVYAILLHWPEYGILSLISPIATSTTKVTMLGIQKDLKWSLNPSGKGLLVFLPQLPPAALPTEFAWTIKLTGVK
# UniProt P53341, whole entry: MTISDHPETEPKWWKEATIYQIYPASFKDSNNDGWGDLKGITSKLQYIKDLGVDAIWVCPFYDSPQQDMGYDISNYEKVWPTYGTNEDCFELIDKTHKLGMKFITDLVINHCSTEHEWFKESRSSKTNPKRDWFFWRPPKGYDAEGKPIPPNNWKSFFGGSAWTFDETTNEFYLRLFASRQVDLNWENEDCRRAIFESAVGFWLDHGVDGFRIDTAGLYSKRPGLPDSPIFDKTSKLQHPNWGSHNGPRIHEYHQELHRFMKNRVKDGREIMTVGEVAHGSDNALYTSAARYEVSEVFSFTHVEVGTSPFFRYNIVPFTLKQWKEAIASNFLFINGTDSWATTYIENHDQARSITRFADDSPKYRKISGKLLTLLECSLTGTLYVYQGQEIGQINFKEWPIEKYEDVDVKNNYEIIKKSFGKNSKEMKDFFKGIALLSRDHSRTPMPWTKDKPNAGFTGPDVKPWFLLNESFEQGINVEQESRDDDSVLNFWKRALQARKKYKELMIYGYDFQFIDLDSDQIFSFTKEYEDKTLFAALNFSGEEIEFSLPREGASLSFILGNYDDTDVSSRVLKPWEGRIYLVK
# UniProt C0HJB3, whole entry: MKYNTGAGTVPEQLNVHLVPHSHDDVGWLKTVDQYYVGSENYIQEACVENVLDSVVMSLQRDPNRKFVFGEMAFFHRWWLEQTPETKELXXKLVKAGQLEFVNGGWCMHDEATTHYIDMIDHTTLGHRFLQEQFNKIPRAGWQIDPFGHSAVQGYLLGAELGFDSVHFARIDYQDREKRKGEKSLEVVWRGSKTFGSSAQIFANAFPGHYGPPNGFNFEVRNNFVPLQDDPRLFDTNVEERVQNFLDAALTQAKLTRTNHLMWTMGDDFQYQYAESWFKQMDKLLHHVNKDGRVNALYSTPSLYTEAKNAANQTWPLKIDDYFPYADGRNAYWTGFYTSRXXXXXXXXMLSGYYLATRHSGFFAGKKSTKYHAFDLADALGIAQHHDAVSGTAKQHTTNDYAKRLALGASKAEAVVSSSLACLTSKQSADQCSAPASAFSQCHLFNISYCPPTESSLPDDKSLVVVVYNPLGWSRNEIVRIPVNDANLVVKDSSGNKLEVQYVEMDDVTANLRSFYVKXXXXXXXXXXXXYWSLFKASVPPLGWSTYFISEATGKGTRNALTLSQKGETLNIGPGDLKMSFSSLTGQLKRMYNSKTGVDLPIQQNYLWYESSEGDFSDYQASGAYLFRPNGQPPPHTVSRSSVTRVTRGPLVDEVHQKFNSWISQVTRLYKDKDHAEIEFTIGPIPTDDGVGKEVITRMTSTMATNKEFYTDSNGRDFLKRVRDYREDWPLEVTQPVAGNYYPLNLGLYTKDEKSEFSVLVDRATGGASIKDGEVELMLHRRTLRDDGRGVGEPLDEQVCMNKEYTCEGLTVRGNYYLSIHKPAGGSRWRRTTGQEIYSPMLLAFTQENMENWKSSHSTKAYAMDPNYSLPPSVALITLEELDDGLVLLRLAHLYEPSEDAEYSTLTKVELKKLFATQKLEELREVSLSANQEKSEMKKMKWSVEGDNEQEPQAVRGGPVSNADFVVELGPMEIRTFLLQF
# Tests used:
# [1] = target: α-fucosidase (bovine kidney origin) (Bos taurus, UniProt Q2KIM0); assay: α-fucosidase inhibition assay, 96-well; format: biochemical; details: read-out: IC50s α-fucosidase (bovine kidney); two independent assays, performed in duplicate
# Experimental: (§1) To assess the inhibitory effect and also the extent of selectivity our library was against α-glucosidase (yeast origin), α-fucosidase (bovine kidney origin) and α-mannosidase (jack bean origin) (in 96-well plates employing 4-nitrophenyl-α-D-glucopyranoside (PNPG) as substrate) (Table 1). The test compounds were dissolved and diluted in dimethyl sulfoxide (DMSO). They were placed in the plate along with the substrate and 10 mM of potassium […] buffer. They were then reacted with appropriate enzymes. After incubating the plates for ten minutes, the absorbance of the wells were measured at […]. The increase in […] (ΔA) was compared against the control i.e. buffer. The inhibitory concentrations (IC50s) were computed using the standard formula (Inhibition% = ΔAcontrol − [ΔAsample/ΔAcontrol] × 100).Acarbose, is used as a standard drug for this assay (Table 1).
# (§2) The inhibitory effect of the synthesized compounds on α-glucosidase (yeast origin), α-fucosidase (bovine kidney origin) and α-mannosidase (jack bean origin) inhibitory activity was determined in 96-well plates employing the substrate PNPG and 4-nitrophenyl α-D-glucopyranoside according to the procedure previously reported by Ferreres et al.[42]. Prior to use, all test compounds were solubilised in solvent, dimethylsulfoxide (DMSO), and then further diluted in DMSO to acquire the desired final maximum test concentration. Briefly, each well in 96-well plates contained 100 µL of 2 mM 4-nitrophenyl α-D-glucopyranoside (PNP-G) in 10 mM potassium phosphate buffer (pH 7.2) and different test concentrations (2–10 µM). The reaction was initiated by the addition of 5 µL of the enzyme solution (0.1 IU per well). α-glucosidase (yeast), α-fucosidase (bovine kidney) and α-mannosidase (jack bean) were purchased from Sigma Aldrich, Bangaluru). The plates were incubated at 37 °C for 10 min. The absorbance was measured spectrophotometrically at 430 nm (Spectra Max M5e micro plate reader). The increase in absorbance (ΔA) was compared with that of the control (buffer instead of test compound) to compute the inhibitory concentrations (IC50) which was determined from two independent assays, performed in duplicate. […]
# [2] = target: T1, α-glucosidase (yeast origin) (Saccharomyces cerevisiae, UniProt P53341); assay: α-glucosidase (yeast) inhibition assay, PNPG substrate, 96-well; format: biochemical; details: read-out: IC50s α-glucosidase (yeast), two independent assays, performed in duplicate, 37 °C, 10 min
# [3] = target: α-mannosidase (jack bean origin) (Canavalia ensiformis, UniProt C0HJB3); assay: α-mannosidase inhibition assay, 96-well; format: biochemical; details: read-out: IC50s α-mannosidase (jack bean); two independent assays, performed in duplicate
# Experimental: as §1, §2
# [4] = test system: Streptozotocin induced male albino Wistar rats; assay: In vivo study in Streptozotocin induced diabetic male albino Wistar rats
# Experimental: Male albino Wistar rats weighing between 200–240 gm each were used for the present investigation. The animals were categorized into five groups (I-V) containing three animals each (n = 3). […].
# Male albino Wistar rats weighing between 200–240 g each were used for the present investigation. The animals were categorized into five groups (I-V) of three each (n = 3), while each one was housed in a separate cage at a temperature of 24 ± 3 °C, with relative humidity of 65 ± 5% and a 12 h dark-light cycle. They were housed and handled in Biosafety Level 2 (BSL2) animal facilities at University College of Pharmaceutical Sciences, Kakatiya University, Warangal, Andhra Pradesh, India and were provided with a standard pellet diet of laboratory and water with continuous monitoring. Actual drug administration was begun after 72 h of diabetic induction by streptozotocin (STZ). The test drug acarbose, a known α-glucosidase inhibitor were administered orally every day for about 28 days soon after the food was completed by the animal. All protocols were reviewed prior to the start of the experiment by an independent ethical review board at University College of Pharmaceutical Sciences, Kakatiya University and approved to be in accordance with the license for animal experiments issued by The Animal Experiments Inspectorate (License no. 1820/GO/Re/S/CPCSEA).
# Diabetes was induced postprandial in the rats (Group II-V)bya single intraperitoneal (I.P) injection of freshly prepared Streptozotocin(60 mgkg^−1 body wt.) in 0.1 M sodium citrate buffer of pH 4.5. Non-diabetic control rats (group-I) were received an I.P injection of buffer alone. Diabetes was confirmed after 72 h of STZ induction by assaying the blood glucose levels. The rats having blood glucose higher than 11 mmol.L^−1 were considered to be diabetic and selected for further study.
# For the determination of biochemical parameters, the animals were kept under fasting overnight and peripheral blood was drawn for the assays. The tests were carried out using commercial kits and following the manufacturer’s instructions.At the end of test period of 28 days, the animals under fasting conditions were anesthetized and sacrificed. Blood and tissues were stored for further biochemical and histological studies. Each animal in every group was tested for body weight, blood glucose, insulin, creatinine, Hb1Ac, lipid profiles.
# The results were expressed as mean ± standard deviation (M ± SD) for three rats in each group. The differences between treated and control groups were assessed by one way analysis of variance (ANOVA) using MINITAB (Version. 14). The values of p < 0.05 were considered to show the statistical significance.
# [5] = target: T1, α-glucosidase (yeast origin); assay: Inhibition kinetics (Lineweaver-Burk and secondary plots); details: from Y-intercept of the LB plot against concentrations of 3c
Compound,IC50 [1] [µM],IC50 [2] [µM],IC50 [3] [µM],also measured
CCN(CC)C(=O)c1ccccc1C(=O)Cc1ccccc1-c1ccc(F)cc1,> 50,5.89,44.8,–
O=C(Cc1ccccc1-c1ccccc1)c1ccccc1C(=O)N1CCCCC1,> 50,5.93,> 50,–
CCN(CC)C(=O)c1ccccc1C(=O)Cc1ccccc1-c1ccccc1,> 50,5.93,23.8,–
CCN(CC)C(=O)c1ccccc1C(=O)Cc1ccccc1Br,> 50,10.1,> 50,–
O=C(Cc1ccccc1-c1ccc(F)cc1)c1ccccc1C(=O)N1CCOCC1,> 50,5.17,> 50,–
O=C(Cc1ccccc1Br)c1ccccc1C(=O)N1CCOCC1,> 50,10.2,> 50,–
O=C(Cc1ccccc1-c1ccc(F)cc1)c1ccccc1C(=O)N1CCCCC1,> 50,5.88,> 50,–
Cc1ccc(-c2ccccc2CC(=O)c2ccccc2C(=O)N2CCCCC2)cc1,> 50,4.5,> 50,"FBG after treatment ([4]; 3.6 mg/kg of 3c, from 300 mg/dl): 120 mg/dL; control over FBG, lower dose in contrast to high-dose ([4]; 3.6 mg/kg vs 7.2 mg/kg body weight): better control over FBG; level of serum insulin after the treatment period ([4]; STZ diabetic rats, 28 days): moderate improvement; toxicity in vivo ([4]; male albino Wistar rats): minimal toxicity; change in fasting blood glucose (FBG) compared to the untreated diabetic rats ([4]; oral administration for about 4 weeks, STZ diabetic rats): highly significant (P < 0.001) decrease; liver histology (periportal inflammation) ([4]; treated diabetic rats, diabetic control showed moderate periportal inflammation): mild inflammation; pancreas histology (β-cell population) ([4]; versus shrinkage of β-cells in diabetic control): improved β -cell population; Ki΄ (inhibition constant, binding to enzyme-substrate complex) [5]: 4.6"
O=C(Cc1ccccc1-c1ccccc1)c1ccccc1C(=O)N1CCCC1,48.1,5.95,> 50,–
O=C(Cc1ccccc1Br)c1ccccc1C(=O)N1CCCC1,> 50,5.2,> 50,–
O=C(Cc1ccccc1Br)c1ccccc1C(=O)N1CCCCC1,> 50,5.81,36.2,–
O=C(Cc1ccccc1-c1ccc(F)cc1)c1ccccc1C(=O)N1CCCC1,34.4,4.93,> 50,–
Cc1ccc(-c2ccccc2CC(=O)c2ccccc2C(=O)N2CCCC2)cc1,> 50,5.68,> 50,–
O=C(Cc1ccccc1-c1ccccc1)c1ccccc1C(=O)N1CCOCC1,> 50,5.15,49.4,–
